Measurements: patent US20220098196A1, “TRAPPING-FREE PARP INHIBITORS” (The Board of Regents of the University of Texas System, priority 2019, published 2022)

Sequences of proteins named here, by UniProt entry; tags and fusion partners are left off.
UniProt P09874, whole entry: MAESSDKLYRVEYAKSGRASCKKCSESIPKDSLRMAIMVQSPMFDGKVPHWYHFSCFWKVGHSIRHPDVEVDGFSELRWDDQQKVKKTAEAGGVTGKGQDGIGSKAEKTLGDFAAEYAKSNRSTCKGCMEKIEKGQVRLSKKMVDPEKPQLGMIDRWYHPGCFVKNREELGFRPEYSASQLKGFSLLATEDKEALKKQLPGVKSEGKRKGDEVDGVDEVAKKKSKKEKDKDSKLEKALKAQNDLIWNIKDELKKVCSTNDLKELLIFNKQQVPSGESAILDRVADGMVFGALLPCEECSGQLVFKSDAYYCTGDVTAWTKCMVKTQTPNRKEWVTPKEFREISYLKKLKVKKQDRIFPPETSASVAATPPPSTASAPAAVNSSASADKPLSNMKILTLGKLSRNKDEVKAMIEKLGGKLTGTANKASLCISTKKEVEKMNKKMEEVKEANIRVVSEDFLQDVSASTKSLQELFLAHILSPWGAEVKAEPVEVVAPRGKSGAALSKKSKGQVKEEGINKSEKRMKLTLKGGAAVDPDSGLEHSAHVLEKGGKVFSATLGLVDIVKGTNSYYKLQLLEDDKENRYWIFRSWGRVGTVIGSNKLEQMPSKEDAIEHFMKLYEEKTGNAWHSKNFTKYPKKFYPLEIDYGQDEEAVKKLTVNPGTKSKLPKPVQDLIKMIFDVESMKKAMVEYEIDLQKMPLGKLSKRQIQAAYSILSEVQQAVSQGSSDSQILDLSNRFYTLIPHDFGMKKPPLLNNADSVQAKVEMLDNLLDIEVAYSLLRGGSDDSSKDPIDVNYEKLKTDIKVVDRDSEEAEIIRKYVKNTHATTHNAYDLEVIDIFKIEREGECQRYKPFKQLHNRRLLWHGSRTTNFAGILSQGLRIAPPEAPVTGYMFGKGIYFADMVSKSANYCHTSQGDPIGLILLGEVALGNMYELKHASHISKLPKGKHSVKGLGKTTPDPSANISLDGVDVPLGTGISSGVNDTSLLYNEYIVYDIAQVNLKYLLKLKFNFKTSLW

Target: PARP1 (Homo sapiens, UniProt P09874)
Assay: PARP1 trapping in HeLa cells (subcellular fractionation, chromatin-bound fraction)
Assay type: cell-based
Parameters: host or cells: HeLa
Conditions: 5 μM for all compounds, MMS 0.01%
Procedure: Subcellular Proteins Extraction. […] The cytosolic proteins were isolated by incubating the cells with the CEB buffer for 10 min at 4° C., and centrifuged at 500 g for 5 min. The membrane proteins were isolated by incubating the pellet from previous step with the MEB buffer for 10 min at 4° C., and centrifuged at 3000 g for 5 min. The soluble nuclear proteins were isolated by incubating the pellet from previous step with the NEB buffer for 30 min at 4° C., and centrifuged at 5000 g for 5 min. The chromatin bound proteins were isolated by incubating the pellet from previous step with the NEB buffer supplemented with nuclease for 15 min at RT and centrifuged at 16000 g for 5 min. Protein concentrations were determined by the BCA assay kit.

Compound: Cn1ncnc1[C@H]1c2n[nH]c(=O)c3cc(F)cc(c23)N[C@@H]1c1ccc(F)cc1 [BMN673]
- potency in PARP1 trapping (rank order): BMN673>Niraparib>Olaparib>Rucaparib>Veliparib
